A value given as a limit tells only on which side of the number the result lay.

Amino acid sequences for entries named in this document (tags omitted).
UniProt Q9NR19, whole entry: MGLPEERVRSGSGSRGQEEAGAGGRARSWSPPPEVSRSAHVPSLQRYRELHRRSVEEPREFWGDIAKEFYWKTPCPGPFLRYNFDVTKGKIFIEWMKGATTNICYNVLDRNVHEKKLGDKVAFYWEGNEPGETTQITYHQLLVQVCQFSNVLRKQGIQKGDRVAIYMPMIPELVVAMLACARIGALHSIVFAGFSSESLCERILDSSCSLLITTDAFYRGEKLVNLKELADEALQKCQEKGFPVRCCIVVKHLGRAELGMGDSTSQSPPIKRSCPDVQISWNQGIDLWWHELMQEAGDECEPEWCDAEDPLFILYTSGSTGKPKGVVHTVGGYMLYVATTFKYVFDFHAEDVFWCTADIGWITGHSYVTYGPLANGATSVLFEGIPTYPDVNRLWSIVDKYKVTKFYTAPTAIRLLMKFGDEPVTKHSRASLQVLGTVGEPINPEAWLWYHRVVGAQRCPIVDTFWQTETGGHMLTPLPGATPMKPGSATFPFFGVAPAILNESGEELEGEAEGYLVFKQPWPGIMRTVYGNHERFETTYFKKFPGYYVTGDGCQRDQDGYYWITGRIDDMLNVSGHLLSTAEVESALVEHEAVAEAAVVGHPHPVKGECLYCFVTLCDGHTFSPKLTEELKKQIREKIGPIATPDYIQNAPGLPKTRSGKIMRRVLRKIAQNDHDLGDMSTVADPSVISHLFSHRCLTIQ

The target of the assay is Acetyl-coenzyme A synthetase, cytoplasmic (Homo sapiens, UniProt Q9NR19). The experiment in a line: Inhibition of N-terminal 6x-histidine tagged human ACSS2 expressed in insect cells assessed as reduction in pyrophosphate production using CoA and ATP incubated for 30 mins by pyrophosphatase coupled enzymatic assay.
As for `CCn1c(C(O)(c2ccc(F)cc2)c2ncccc2C)nc2ccc(CCCO)cc21` (stereo not drawn), the IC50 is < 50 nM.
Consider `CCn1c(C(O)(c2ccccc2F)c2ccccc2F)nc2ccc(C(=O)NC)cc21`, for which the half-maximal inhibitory concentration (IC50) was < 50 nM.
Take `CCn1c(C(O)(c2ccccc2)c2ccccc2)nc2ccc(C(O)CCO)cc21` (stereo not drawn): the IC50 was < 50 nM.
As for `CCn1cc(NC(=O)c2ccc3nc(C(O)(c4ccccc4)c4ccccc4)n(CCO)c3c2)cn1`, the figure is < 50 nM.
With `CCn1c(C2(O)c3ccccc3-c3ccccc32)nc2ccc(C(=O)NCC(C)O)cc21` (stereo not drawn), the IC50 was > 1000 nM.
Regarding `CCn1c(C(O)(c2ccccc2)c2ccccc2)nc2ccc(C(=O)NCC(F)F)cc21`, the half-inhibitory concentration (IC50) was < 50 nM.
For the molecule `CCn1c(C(O)(c2ccccc2)c2ccccc2)nc2ccc(C(=O)NCC(F)(F)C#N)cc21`, the IC50 was < 50 nM.
With `Cc1ccc2nc(C(c3ccccc3F)c3ccccc3F)n(C)c2c1`, the IC50 was > 1000 nM.
As for `CCn1c(C(O)(c2ccccc2)c2ccccc2)nc2ccc(C(=O)NCCF)cc21`, the figure is < 50 nM; as for `CCn1c(C(O)(c2ccccc2)c2ccccc2)nc2ccc(CCCO)cc21`, < 50 nM; as for `CCn1c(C(O)(c2ccccc2)c2ccccc2)nc2cnc(OC)cc21`, > 1000 nM.
Consider `CCn1c(C(O)(c2ccccc2)c2ccccc2)nc2ccc(C(NC[C@@H](C)O)C(F)(F)F)cc21` (mixture of isomers), for which the IC50 is > 1000 nM.
`CCn1c(C(O)(c2ccccc2)c2ccccc2)nc2cc(C(=O)OCCO)ccc21`: the IC50 is > 1000 nM.
As for `CCn1c(C(O)(c2ccccc2)c2ccccc2)nc2c(Cl)cc(C(=O)O)cc21`, the figure is > 1000 nM; as for `CCn1c(C(O)(c2ccccc2)c2ccccc2)nc2ccc(C(=O)NCCNC(C)=O)cc21`, < 50 nM; as for `CCn1c(C(O)(c2ccccc2)c2ccccc2)nc2ccc(C(=O)NC[C@H](O)CC(C)(F)F)cc21`, < 50 nM.
Turning to `Cc1cccnc1C(O)(c1ccc(F)cc1)c1nc2ccc(S(N)(=O)=O)cc2n1C` (stereo not drawn), the IC50 was < 50 nM.
As for `CCn1c(C(O)(c2ccccc2)c2ccccc2)nc2ccc(CC(F)(F)CO)cc21`, the IC50 is < 50 nM.
For the molecule `CCn1c(C(O)(c2ccccc2)c2ccccc2)nc2ccc(NC(=O)c3cccc(OC)c3)cc21`, the IC50 was < 50 nM.
Turning to `CCn1c(C(O)(c2ccccc2)c2ncccc2C)nc2ccc(CCCO)cc21` (stereo not drawn), the IC50 was < 50 nM.
In the case of `CCn1c(C(O)(c2ccccc2)c2ccccc2)nc2ccc(CCC(C)O)cc21` (stereo not drawn), the IC50 is < 50 nM.
As to `CCCC(O)CNC(=O)c1ccc2nc(C(O)(c3ccc(F)cc3)c3ccc(F)cc3)n(C)c2c1` (stereo not drawn), the concentration for half-maximal inhibition (IC50) is < 50 nM.
On to `CCOC(=O)C(F)(F)CNC(=O)c1ccc2nc(C(O)(c3ccccc3)c3ccccc3)n(CC)c2c1`, for which the half-maximal inhibitory concentration (IC50) is < 50 nM.
As to `CCn1c(C(O)(c2ccccc2)c2ccccc2)nc2cc(OCCCO)ncc21`, the half-inhibitory concentration (IC50) was > 1000 nM.
For the molecule `CCn1c(C(O)(c2ccccc2)c2ccccc2)nc2ccc(C(=O)NC[C@@H](C)O)c(F)c21`, the IC50 was < 50 nM.
Next, `CCn1c(C(O)(c2ccccc2)c2ccccc2)nc2ccc(C(F)(F)C(=O)NC)cc21`: < 50 nM.
`CCn1c(C(O)(c2ccccc2)c2ccccc2)nc2c(OC)cccc21`: the IC50 was > 1000 nM.
Regarding `CCn1c(C(O)(c2ccccc2)c2ccccc2)nc2ccc(C(=O)NC[C@@H](O)CF)cc21`, the IC50 is < 50 nM.
Take `CCn1c(C(O)(c2ccccc2)c2ccccc2)nc2ccc(S(=O)(=O)NC)cc21`: the IC50 was < 50 nM.
With `CCn1c(C(O)(c2ccccc2)c2ccccc2)nc2c(OCCO)nccc21`, the IC50 is > 1000 nM.
As to `CCn1cc(NC(=O)c2ccc3nc(C(O)(c4ccccc4)c4ccccc4)n(CC)c3c2)ccc1=O`, the IC50 is < 50 nM.
In the case of `CC(C)n1c(C(O)(c2ccccc2)c2ccccc2)nc2ccc(C(=O)NC[C@@H](C)O)cc21`, the IC50 was > 1000 nM.
Regarding `CCn1cccc(NC(=O)c2ccc3nc(C(O)(c4ccccc4)c4ccccc4)n(CC)c3c2)c1=O`, the IC50 is < 50 nM.
As to `Cn1c(C(O)(c2ccc(F)cc2)c2ncccc2F)nc2ccc(S(N)(=O)=O)cc21` (stereo not drawn), the IC50 is < 50 nM.
As for `COc1cc(NC(=O)c2ccc3nc(C(c4ccccc4)c4ccccc4)[nH]c3c2)cc(OC)c1OC`, the figure is < 50 nM; as for `CCNS(=O)(=O)c1ccc2nc(C(O)(c3ccccc3)c3ccccc3)n(CC)c2c1`, < 50 nM; as for `Cn1c(C(O)(c2ccccc2)c2ccccc2)nc2ccc(C(=O)NCC(F)F)cc21`, < 50 nM.
As for `CCn1c(C(O)(c2ccccc2)c2ccccc2)nc2ccc(C(=O)NCC3(O)CC3)cc21`, the figure is < 50 nM; as for `CCN1CC(NC(=O)c2ccc3nc(C(O)(c4ccccc4)c4ccccc4)n(CCO)c3c2)CCC1=O` (stereo not drawn), < 50 nM.
Consider `CCn1c(C(O)(c2ccccc2)c2ccccc2)nc2ccc(C(=O)NCC(O)C(F)F)cc21` (stereo not drawn), for which the IC50 is < 50 nM.
For the molecule `CCn1c(C(O)(c2ccccc2)c2ccccc2)nc2ccc(C(=O)NCc3ccccc3)cc21`, the IC50 was < 50 nM.
As for `C=CC[C@@H](O)CNC(=O)c1ccc2nc(C(O)(c3ccccc3)c3ccccc3)n(CC)c2c1`, the half-maximal inhibitory concentration (IC50) is < 50 nM.
`CCn1c(C(O)(c2ccccc2)c2ccccc2)nc2c(Cl)cc(C)cc21`: the IC50 was > 1000 nM.
As to `CCn1c(C(O)(c2ccccc2)c2ccccc2)nc2ccc(C(=O)NOC)cc21`, the IC50 is < 50 nM.
Next, `CCn1c(C(O)(c2ccccc2)c2ccccc2)nc2ccc(C(O)C(F)(F)CO)cc21` (stereo not drawn): < 50 nM; `CCn1c(C(O)(c2ccccc2)c2ccccc2)nc2ccc(CNC(=O)OC)cc21`: < 50 nM.
Take `CCn1c(C(O)(c2ccccc2)c2ccccc2)nc2ccc(NC(=O)CCOC)cc21`: the half-maximal inhibitory concentration (IC50) is < 50 nM.
For the molecule `CCn1c(C(O)(c2ccccc2)c2ccccc2)nc2ccc(C(=O)Nc3ccn(CC(C)O)n3)cc21` (stereo not drawn), the concentration for half-maximal inhibition (IC50) was < 50 nM.
As for `CCn1c(C(O)(c2ccccc2)c2ccccc2)nc2ccc(C(=O)Nc3cnn(CC(C)O)c3)cc21` (stereo not drawn), the figure is < 50 nM; as for `CNC(=O)c1ccc2c(c1)nc(C(O)(c1ccccc1)c1ccccc1)n2C`, > 1000 nM.
With `CCCC(O)CNC(=O)c1ccc2nc(C(O)(c3ccc(F)cc3)c3ccc(F)cc3)n(CC)c2c1` (stereo not drawn), the IC50 is < 50 nM.
In the case of `CCn1c(C(O)(c2ccccc2)c2ccccc2)nc2ccc(CC(N)=O)cc21`, the IC50 is < 50 nM.
As to `CCn1c(C(O)(c2ccccc2)c2ccccc2)nc2ccc(C(=O)Nc3nc(C)c[nH]3)cc21`, the IC50 was < 50 nM.
`C[C@@H](O)CNC(=O)c1ccc2nc(C(O)(c3ccccc3)c3ccccc3)n(C3COC3)c2c1`: the IC50 is > 1000 nM.
For the molecule `CCn1c(C(O)(c2ccccc2)c2ccccc2F)nc2ccc(C(=O)NC[C@@H](C)O)cc21` (stereo partly drawn), the IC50 was < 50 nM.
Regarding `CCn1ccc(NC(=O)c2ccc3c(c2)nc(C(O)(c2ccccc2)c2ccccc2)n3C)n1`, the half-maximal inhibitory concentration (IC50) is > 1000 nM.
Consider `NS(=O)(=O)c1cc2c(cc1F)nc(C(O)(c1ccccc1F)c1ccccc1F)n2CCO`, for which the IC50 is < 50 nM.
As for `CCn1c(C(O)(c2ccccc2)c2ccccc2)nc2ccc(S(N)(=O)=O)cc21`, the figure is < 50 nM; as for `CCn1c(C(O)(c2ccccc2)c2ccccc2)nc2ccc(NC(=O)CC#N)cc21`, < 50 nM.
With `CCn1c(C(O)(c2ccccc2)c2ccccc2)nc2cc(OCCO)ccc21`, the IC50 was > 1000 nM.
Take `CCn1c(C(O)(c2ccccc2)c2ncccc2F)nc2ccc(CCCO)cc21` (stereo not drawn): the half-inhibitory concentration (IC50) is < 50 nM.
On to `CCn1c(C(O)(c2ccccc2)c2ccccc2)nc2ccc(C(F)(F)CO)cc21`, for which the IC50 is < 50 nM.
Next, `CCn1cc(NC(=O)c2ccc3nc(C(O)(c4ccccc4F)c4ccccc4F)n(CCO)c3c2)cn1`: < 50 nM.
Take `Cc1ccc2nc(C(CO)(c3ccccc3)c3ccccc3)n(C)c2c1`: the IC50 was > 1000 nM.
Consider `CCn1c(C(O)(c2ccccc2)c2ccccc2)nc2ccc(C(=O)NCC(C)(F)F)cc21`, for which the IC50 is < 50 nM.
`CCn1c(C(O)(c2ccccc2F)c2ccccc2F)nc2ccc(C(=O)NC[C@@H](C)O)cc21`: the IC50 was < 50 nM.
For `Cn1c(C(O)(c2ccccc2)c2ccccc2)nc2ccc(C(=O)NCCF)cc21`, the IC50 is < 50 nM.
On to `CCn1c(C(O)(c2ccccc2)c2ccccc2)nc2ccc(C(F)(F)C(N)=O)cc21`, for which the IC50 was < 50 nM.

The IC50 is the point on the concentration scale where inhibition reaches its midpoint.
